From article PMC3604185 (Biochemical pharmacology, 2013)

Protein sequences, listed by entry. Tags and fused reporters are not part of them.
UniProt P0DMS8, whole entry: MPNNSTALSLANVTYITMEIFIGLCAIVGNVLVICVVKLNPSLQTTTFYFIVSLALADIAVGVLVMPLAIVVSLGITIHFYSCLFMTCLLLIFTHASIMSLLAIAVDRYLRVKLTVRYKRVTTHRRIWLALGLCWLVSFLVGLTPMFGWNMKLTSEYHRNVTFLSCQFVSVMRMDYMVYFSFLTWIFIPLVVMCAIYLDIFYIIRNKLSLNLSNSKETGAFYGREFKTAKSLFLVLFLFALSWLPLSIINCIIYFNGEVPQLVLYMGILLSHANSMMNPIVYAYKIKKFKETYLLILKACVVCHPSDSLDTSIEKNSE

Columns and labels:
hA3AR [1] = biological target: T1, hA3AR (Homo sapiens, UniProt P0DMS8); assay: FCM kinetics; type: cell-based; settings: 30 nM
hA3AR [2] = biological target: T1, hA3AR; assay: FCM saturation binding of fluorescent ligand to whole CHO cells expressing hA3AR
A3AR in HL-60 cells = A3AR in HL-60 cells (Homo sapiens, UniProt P0DMS8); assay: FCM binding in HL-60 cells; settings: 300 nM, 1 h, in presence of 100 nM XAC; displacement by 1 µM MRS1523

(1′S,2′R,3′S,4′S,5′S)-4′-[6-(3-chlorobenzylamino)-2-(N-cyanine(β-aminoethylaminocarbonyl)-1-butynyl)-9-yl]-2′,3′-dihydroxybicyclo[3.1.0]hexane-1′-carboxylic acid N-methylamide [Compound 1]
t1/2 of dissociation (hA3AR [1]; 0.4 M sucrose, 37 °C, initiated at 60 min by 10 µM MRS1220): 21.4 min | observed association rate constant (K) (hA3AR [1]; absence of sucrose at 37°C): 0.039 min⁻¹ | observed association rate constant (K) (hA3AR [1]; incubation at 4°C): 0.013 min⁻¹ | fraction of fluorescent label internalized at plateau (hA3AR [1]; plateau after 45 min): roughly 50% | observed association rate constant (K) (hA3AR [1]; presence of sucrose at 37°C): 0.026 min⁻¹ | t1/2 of association (hA3AR [1]; sucrose-containing media (0.4 M), 37 °C): 26.4 min | Bmax (maximal fluorescent intensity) (hA3AR [2]; 37 °C incubation in sucrose-free media): 245,974 MESF | nonspecific binding (hA3AR [2]; co-administration of MRS1220 or NECA): too low to quantify | Bmax (maximal fluorescent intensity) (hA3AR [2]; incubation for one hour at 4 °C): 58,655 MESF | Bmax (maximal fluorescent intensity) (hA3AR [2]; treatment with sucrose): 192,689 MESF | specific binding to HL-60 cells (A3AR in HL-60 cells): specific binding of MRS5218 to HL-60 cells was detected
